# The list shows a part of the results, in another mix than the full data. The source made the active and inactive calls.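 How the source made its calls: active means activation above the mean over all tested compounds plus 3 SD (cut at about 30% in these data); inactive means the rest.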
# Target: Troponin I, cardiac muscle (Homo sapiens) + Troponin T, cardiac muscle (Homo sapiens) + Troponin C, slow skeletal and cardiac muscles (Homo sapiens) (UniProt P19429+P45379+P63316)
# Experiment: cardiac RTF calcium sensitivity activators, primary screen, biochemical, IANBD-TnC fluorescence, EC20 calcium (AID 493008);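 further: rise in fluorescence read as greater calcium sensitivity of cardiac thin filaments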
# Details: IANBD-labeled TnC RTF fluorescence at EC20 calcium; at 7.2 µM; stronger effect = higher value; 0% EC20 calcium, 100% full calcium
row,Structure (SMILES),activation
1,c1ccc(CN2CCC(Nc3ccccc3)CC2)cc1,inactive: 5.7%
2,CCCN1CCC(Nc2cc(OC)cc(OC)c2)CC1,inactive: 4.04%
3,Cc1cc(N(CCCl)CCCl)ccc1C=O,inactive: -5.71%
4,CN(C)C1(CNC(=O)c2cccc(C#N)c2)CCCCC1,inactive: -2.4%
5,CC(C)(C)OC(=O)N1CCC(N(C(=O)c2ccccc2)c2ccc(Cl)cc2)CC1,inactive: -7.29%
6,N#Cc1ccc(C(=O)NCC2(N3CCCCC3)CCCCC2)cc1,inactive: 4.79%
7,N/C(=N\O)c1c(N)no[n+]1[O-],inactive: 0.57%
8,CCOC(=O)N1CCC(Nc2ccc(C)cc2)CC1,inactive: -1.13%
9,O=C(OC1CN2CCC1CC2)C1c2ccccc2C=Cc2ccccc21 (stereo not given),inactive: 4.47%
10,O=C(NCC1(N2CCOCC2)CCCCC1)c1cc(Br)ccc1Cl,inactive: 5.67%
11,COc1cc(C(=O)NCC2(N3CCOCC3)CCCCC2)cc(OC)c1C,inactive: -1.68%
12,COc1ccc(C(=O)NCC2(N3CCOCC3)CCCCC2)cc1OC,inactive: 5.58%
13,CCC(CO)(C(=O)OC1CN2CCC1CC2)c1ccccc1 (stereo not given),inactive: 2.11%
14,COc1cc(OC)cc(C(=O)NCC2(N3CCOCC3)CCCCC2)c1,inactive: 4.77%
15,COc1cccc(C(=O)N(c2cc(C)cc(C)c2)C2CCN(C(=O)OC(C)(C)C)CC2)c1,inactive: 7.18%
16,CN1CCC(Nc2ccc(Cl)cc2)CC1,inactive: -3.49%
17,CCOc1ncccc1C(=O)NCC1(N2CCOCC2)CCCCC1,inactive: 5.23%
18,CN1CCC(Nc2ccc(F)c(Cl)c2)CC1,inactive: 3.54%
19,CCCOc1ccc(C(=O)NCC2(N(C)C)CCCCC2)cc1,inactive: 8.89%
20,CC(C)(C)OC(=O)N1CCC(Nc2ccccc2)CC1,inactive: -0.66%
21,O=C(O)C1(Nc2ccccc2)CCN(Cc2ccccc2)CC1,inactive: -6.17%
22,Cc1ccccc1NC1(C#N)CCN(Cc2ccccc2)CC1,inactive: -0.56%
23,CCN1CCC(Nc2cccc(F)c2)CC1,inactive: 12.7%
24,O=C(NCC1(N2CCCCC2)CCCCC1)c1ccco1,inactive: -1.34%
25,CN(C)c1ccc(C(=O)NCC2(N3CCCCC3)CCCCC2)cc1,inactive: -1.95%
26,Cn1c(=O)[nH]cc(N(CCCl)CCCl)c1=O,inactive: 4.18%
27,COc1cc(OC)cc(C(=O)NCC2(N3CCCCC3)CCCCC2)c1,inactive: 1.37%
28,CC(=O)N(c1ccccc1)C1CCNCC1,inactive: -3.25%
29,Cc1ccc(NC2(C#N)CCN(Cc3ccccc3)CC2)cc1,inactive: 6.13%
30,Cc1ccc(C(=O)NCC2(N3CCCCC3)CCCCC2)o1,inactive: 9.96%
